# Measured values taken from patent publication US20140294763A1, “PEPTIDOMIMETIC PROTEASE INHIBITORS” (priority 2000, published 2014).
# Where “and” joins values, the source holds several entries; their conditions need not be identical. Identical values can stand only once.
# Legend:
# [1] = system: HCV subgenomic RNA replicon in Huh7 cells; assay: HCV subgenomic RNA replicon assay (Replicon Assay), TaqMan RT-PCR of replicon RNA after 48 h treatment; type: cell-based, hepatitis C virus (HCV); settings: for IC50 INF: interferon used individually, HCV replicon RNA accumulation, 48 h, response-surface fit; for Inhibition of replicon RNA accumulation: 48 hour treatment
# Description: The Replicon Assay measures the amount of HCV subgenomic RNA (replicon RNA) remaining in replicon cells (Lohman et al. Science 285:110-113 (1999)) after two days of drug treatment relative to the amount of replicon RNA in untreated cells. In this assay, the potency of compounds as HCV antiviral drugs is directly proportional to the level of inhibition of replicon RNA accumulation.
# The Replicon Assay employing a cell line containing the self-replicating HCV subgenomic RNA (replicon) is described in Lohmann et al. Science 285:110-113 (1999). The Genbank accession number for the sequence of the replicon used in the experiments described herein is listed in this reference as AJ242654. This paper discloses methods for in vitro transcription of RNA from the replicon cDNA, transfection of the replicon RNA into Huh7 cells by electroporation, and selection of cells containing the replicon RNA using the antibiotic G418. Huh7 cells are a hepatoma cell line obtained from Dr. William Mason at Fox Chase Cancer Research Center (Philadelphia). These cells are publicly available from Fox Chase, and have been extensively described in the scientific literature (Nakabayashi at al. Cancer Res. 42:3858-3863 (1982)). In the experiments described herein, all of the template DNA is removed from the in vitro transcribed replicon RNA preparation prior to electroporation of this RNA into Huh7 cells by multiple treatment with DNase (three sequential treatments).
# The Replicon Assay is performed as described in detail below. Briefly, Replicon cells are placed in 96 well trays at a density of 10,000 cells per well and incubated 37° C. The cells are incubated in DMEM ([…]) supplemented with 10% fetal bovine serum, glutamine, nonessential amino acids, and the antibiotic G418 (0.25 mg/ml). […] Each compound is tested at six to eight different concentrations. […] Each HCV serine protease inhibitor concentration is tested without any added interferon, as well as with the addition of six to eight different interferon doses. Similarly, interferon is tested without any added HCV serine protease inhibitor. After a 48-hour incubation with the compounds, the medium is removed from the plates, and total cellular RNA is extracted from the cells using the RNeasy-96 kit manufactured by Qiagen Inc. (Valencia, Calif.). This RNA is then analyzed by quantitative RT-PCR, or TaqMan® (Applied Biosystems, Foster City Calif.). The TaqMan® RT-PCR target is the neomycin resistance gene in the replicon RNA. The plates are configured so that there are 5 replicates of each drug treatment sample, and 16 replicates of the untreated samples. This permits greater statistical confidence in the quantitative RT-PCR data.
# Analysis of the Replicon Assay data yields two values that are useful in assessing the potency of potential HCV antiviral agents.
# [2] = system: replicon cells (glyceraldehyde-3-phosphate dehydrogenase (GAPDH) mRNA levels); assay: TaqMan quantitative RT-PCR of GAPDH mRNA levels in treated versus untreated replicon cells (cytotoxicity measure); settings: treated versus untreated cells in the Replicon Assay
# Description: Inflamation Research. […] It is assumed that the level of GAPDH mRNA, which is a constitutively expressed housekeeping gene, is the same in all viable cells. […] Thus, it is postulated, as done by others using TaqMan® technology to determine the levels of particular mRNAs in human cells, that GAPDH mRNA levels are proportional to viable cell numbers (VCN) in any given sample, with the relationship of VCN=2^̂(40−CtGAPDH mRNA). The VCN is computed for each of the Replicon Assay sample wells, and then we divide the HCV Replicon RNA copy number for a specific well by the VCN for that well. Once computed, this ratio is used instead of the HCV copy number to compute inhibition (“Avg. Inh using ratio”; FIG. 14A). […] In the Replicon Assay, it is assumed that the measured inhibition of HCV RNA replicon accumulation is the sum of the actual inhibition of HCV RNA replicon accumulation and the apparent inhibition of HCV RNA replicon accumulation due to cytoxicity. […] Thus, the true anti-HCV activity of a compound in the Replicon Assay corrected for general cytotoxicity can be estimated by dividing the number of HCV replicon RNA molecules measured in each sample by the VCN, thus normalizing to the number of viable cells in each sample. […] In FIG. 14A, “Avg.
substance,measurement,setting,value
"IFN alpha-2B: ""interferon alpha-2B (Schering-Plough)""",IC50 INF,[1],2.36 units and 2.53 units and 3.06 units and 1.22 units and 2.05 units
"IFN beta: ""interferon beta""",IC50 INF,[1],1.82 units
interferon alpha-2B,"cytotoxicity (GAPDH mRNA levels, TaqMan RT-PCR)",[2],no significant cytotoxicity
interferon-alpha 2B,Inhibition of replicon RNA accumulation,[1]; interferon-alpha 2B 0.0096 U alone (Compound CU 0 μM),12%
same,Inhibition of replicon RNA accumulation,[1]; interferon-alpha 2B 0.048 U alone (Compound CU 0 μM),8%
same,Inhibition of replicon RNA accumulation,[1]; interferon-alpha 2B 0.24 U alone (Compound CU 0 μM),16%
same,Inhibition of replicon RNA accumulation,[1]; interferon-alpha 2B 1.2 U alone (Compound CU 0 μM),38%
same,Inhibition of replicon RNA accumulation,[1]; interferon-alpha 2B 6 U alone (Compound CU 0 μM),73%
same,Inhibition of replicon RNA accumulation,[1]; interferon-alpha 2B 30 U alone (Compound CU 0 μM),89%
same,interferon-alpha 2B IC30,"[1]; interferon-alpha 2B alone, replicon RNA accumulation 48 h",2050 nM
same,interferon IC50,"[1]; interferon-alpha 2B as single drug treatment, initial experiment, replicon RNA accumulation 48 h",2.19 U
